Literature values as cited in patent publication US10676746B2, “Methods for identifying therapeutic targets and treating monitoring cancers” (Fred Hutchinson Cancer Research Center, priority 2013, dated 2020).
Where two headings read alike, the source gives them in different places.

System: cancer cell lines
Settings: read-out: median IC50, cited from earlier work

In the case of `O=C1NC(=O)c2c1c(-c1ccccc1Cl)cc1[nH]c3ccc(O)cc3c21`, the IC50 (p53 mutant SCC cells (n=34)) is listed as 5.34 µM and the IC50 (p53 mutant, 499 cell lines excluding SCC lines) is listed as 12.8 µM.
